# Laboratory results published in patent US12472208B2 (priority 2013, dated 2025).
# Tested on: lung function
# Experiment: Accidental human exposure to chloromethyl-methyl-sulfide
# Conditions: exposure in 1992, followed by recovery of a portion
compound,measurement,value
CSCCl,temporary loss of lung function,more than 50%
